Laboratory results from PubChem BioAssay AID2520 (Sanford-Burnham Center for Chemical Genomics, 2010).
The list shows a part of the results, in another mix than the full data. Active and inactive are the calls of the source.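 Rule for the calls: active = activation more than six SD over the plate average, tested at 20 µM; inactive = the rest.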

By UniProt entry, the sequences of proteins in these tests, tags left out.
UniProt P35414, whole entry: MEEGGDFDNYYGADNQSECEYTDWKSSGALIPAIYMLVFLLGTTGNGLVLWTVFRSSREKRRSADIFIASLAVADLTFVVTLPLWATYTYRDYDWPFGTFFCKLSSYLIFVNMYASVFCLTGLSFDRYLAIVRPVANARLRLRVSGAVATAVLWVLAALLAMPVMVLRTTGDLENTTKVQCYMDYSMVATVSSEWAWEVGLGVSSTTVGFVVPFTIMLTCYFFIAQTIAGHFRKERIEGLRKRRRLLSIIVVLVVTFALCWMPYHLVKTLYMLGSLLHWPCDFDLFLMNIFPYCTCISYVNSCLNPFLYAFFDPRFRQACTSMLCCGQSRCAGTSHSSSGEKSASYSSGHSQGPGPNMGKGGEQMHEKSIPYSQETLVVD

Molecular target: Apelin receptor (Homo sapiens) (UniProt P35414)
Experiment: APJ activation via beta-arrestin recruitment – CHO-K1 cells, PathHunter beta-arrestin, luminescence, primary screen (AID 2520)
Details: at 20 µM, active compounds read high, 0% DMSO wells, 100% apelin
Summary of the method: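 Assay system – PathHunter CHO-K1 APJ (AGTRL-1) beta-arrestin reporter cells · Compound – one dose, 20 µM compound, 1% DMSO · Timing – compound 90 min 25 °C, reagent 1 h · Measured by – luminescence from split beta-galactosidase complementation, Galacton Star/Emerald II substrate · Measure – beta-arrestin recruitment to APJ as agonist activity, luminescent signal · Benchmarks – DMSO vs Apelin-13 10 nM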

SMILES | activation
CCN1CCC(Nc2cccc(F)c2)CC1 | inactive: -3.13%
CN(C)c1ccc(C(=O)NCC2(N3CCCCC3)CCCCC2)cc1 | inactive: -3.39%
O=C(NCC1(N2CCCCC2)CCCCC1)c1ccco1 | inactive: -3.07%
COc1cc(OC)cc(C(=O)NCC2(N3CCCCC3)CCCCC2)c1 | inactive: -3.47%
Fc1ccccc1NC1CCN(Cc2ccccc2)CC1 | inactive: -2.67%
Cc1ccc(C(=O)NCC2(N3CCCCC3)CCCCC2)o1 | inactive: 5.41%
COc1cccc(C(=O)N(c2cc(C)cc(C)c2)C2CCN(C(=O)OC(C)(C)C)CC2)c1 | inactive: -1.61%
COc1cc(OC)cc(C(=O)NCC2(N3CCOCC3)CCCCC2)c1 | inactive: -0.0893%
CCC(CO)(C(=O)OC1CN2CCC1CC2)c1ccccc1 (configuration not stated) | inactive: 4.27%
CN1CCC(Nc2ccc(Cl)cc2)CC1 | inactive: 0.513%
CCCOc1ccc(C)cc1CN(CCCl)CCCl | inactive: -1.53%
CN1CCC(Nc2ccc(F)c(Cl)c2)CC1 | inactive: -3.95%
CCOc1ncccc1C(=O)NCC1(N2CCOCC2)CCCCC1 | inactive: -4.85%
O=C(O)C1(Nc2ccccc2)CCN(Cc2ccccc2)CC1 | inactive: 1.07%
CC(C)(C)OC(=O)N1CCC(Nc2ccccc2)CC1 | inactive: -2.24%
CCCOc1ccc(C(=O)NCC2(N(C)C)CCCCC2)cc1 | inactive: -2.86%
CCOC(=O)N1CCC(Nc2ccc(C)cc2)CC1 | inactive: -4.45%
N/C(=N\O)c1c(N)no[n+]1[O-] | inactive: -4.34%
O=C(OC1CN2CCC1CC2)C1c2ccccc2C=Cc2ccccc21 (configuration not stated) | inactive: -1.88%
CCc1cc(C(=O)NCC2(N3CCCCC3)CCCCC2)sc1C | inactive: -1.86%
COc1cc(C(=O)NCC2(N3CCOCC3)CCCCC2)cc(OC)c1C | inactive: -2.9%
O=C(NCC1(N2CCOCC2)CCCCC1)c1cc(Br)ccc1Cl | inactive: -5.03%
COc1ccc(C(=O)NCC2(N3CCOCC3)CCCCC2)cc1OC | inactive: -3.93%

SMILES | activation
CN(C)C1(CNC(=O)c2cccc(C#N)c2)CCCCC1 | inactive: -2.36%
CCCN1CCC(Nc2cc(OC)cc(OC)c2)CC1 | inactive: -0.314%
c1ccc(CN2CCC(Nc3ccccc3)CC2)cc1 | inactive: -2.02%
N#Cc1ccc(C(=O)NCC2(N3CCCCC3)CCCCC2)cc1 | inactive: -4.87%
CC(C)(C)OC(=O)N1CCC(N(C(=O)c2ccccc2)c2ccc(Cl)cc2)CC1 | inactive: -0.488%
O=C(NCC1(N2CCCCC2)CCCCC1)c1cccc(C(F)(F)F)c1 | inactive: -2.28%
O=C(NCC1(N2CCOCC2)CCCCC1)c1cc(=O)[nH]c2ccccc12 | inactive: 1.15%
COc1cc(C(=O)NCC2(N3CCCCC3)CCCCC2)ccc1OC(F)F | inactive: -2%
COc1ccc(NC2CCN(C(=O)OC(C)(C)C)CC2)cc1 | inactive: -3.33%
CC(C)c1ccc(C(=O)NCC2(N3CCOCC3)CCCCC2)cc1 | inactive: 3.25%
CN1CCN(CCOC(=O)C(O)(c2ccccc2)c2ccccc2)CC1 | inactive: -0.635%
O=C(NCC1(N2CCCCC2)CCCCC1)c1ccc(OC(F)F)cc1 | inactive: -5.72%
N#CC1(Nc2ccccc2)CCN(CCc2ccccc2)CC1 | inactive: -4.06%
CCN1CCC(Nc2ccc(Cl)cc2)CC1 | inactive: 3.04%
O=C(NCC1(N2CCCCC2)CCCCC1)c1cccc([N+](=O)[O-])c1 | inactive: 0.331%
CSc1ccc(C(=O)NCC2(N3CCOCC3)CCCCC2)cc1 | inactive: 3.93%
O=C(NCC1(N2CCCCC2)CCCCC1)c1cncc(Br)c1 | inactive: -4.49%
CN1CCC(Nc2cccc(F)c2)CC1 | inactive: -3.34%
CC(C)c1ccc(NC2CCN(C(=O)OC(C)(C)C)CC2)cc1 | inactive: 1.37%
CN(C)c1cccc(C(=O)NCC2(N3CCCCC3)CCCCC2)c1 | inactive: -2.54%
COc1ccc(CN(CCCl)CCCl)cc1Cl | inactive: -3.5%
O=C(NCC1(N2CCOCC2)CCCCC1)c1cc(F)c(F)cc1Cl | inactive: -1.31%
COc1cc(OC)c(C(=O)NCC2(N(C)C)CCCCC2)cc1OC | inactive: -3.06%

SMILES | activation
Cc1cc(C)cc(N(C(=O)c2ccccc2)C2CCN(C(=O)OC(C)(C)C)CC2)c1 | inactive: 2.02%
O=C(NCC1(N2CCCCC2)CCCCC1)c1ccc(Cl)nc1 | inactive: 0.896%
O=C(NCC1(N2CCOCC2)CCCCC1)c1cc2ccccc2o1 | inactive: -2.03%
COc1ccc(Cl)cc1C(=O)NCC1(N2CCOCC2)CCCCC1 | inactive: -1.73%
O=C(OC1CN2CCC1CC2)C1c2ccccc2Oc2ccccc21 (configuration not stated) | inactive: -2.82%
O=C(NCC1(N2CCCCC2)CCCCC1)c1ccc(Cl)s1 | inactive: -3.69%
N#CC1(Nc2ccccc2)CCN(Cc2ccccc2)CC1 | inactive: -0.724%
CCOC(=O)N1CCC(Nc2ccc(OC)cc2)CC1 | inactive: -1.34%
COc1ccc(C(=O)NCC2(N3CCCCC3)CCCCC2)c(OC)c1OC | inactive: -4.08%
CC(C)(C)OC(=O)N1CCC(N(C(=O)c2ccccc2)c2ccc(F)cc2)CC1 | inactive: -3.84%
COc1ccc(C(=O)NCC2(N3CCCCC3)CCCCC2)cc1 | inactive: 2.77%
O=C(NCC1(N2CCCCC2)CCCCC1)c1cccs1 | inactive: -1.26%
O=C(NCC1(N2CCCCC2)CCCCC1)c1ccc(=O)[nH]c1 | inactive: 1.2%
CSc1ccccc1C(=O)NCC1(N2CCCCC2)CCCCC1 | inactive: -1.83%
Cc1ccc(OCC(C)C)c(CN(CCCl)CCCl)c1 | inactive: -2.6%
CCOC(=O)N1CCC(Nc2cccc(C)c2)CC1 | inactive: -0.934%
CCOc1ccc(C)cc1CN(CCCl)CCCl | inactive: -5.94%
CCOC(=O)N1CCC(Nc2ccc(F)cc2)CC1 | inactive: -0.399%
COc1ccc(NC2CCN(CCc3ccccc3)CC2)c(OC)c1 | inactive: -1.54%
O=C(NCC1(N2CCCCC2)CCCCC1)c1ccc(F)cc1 | inactive: -0.701%
CCCCOc1ccc(C(=O)NCC2(N3CCOCC3)CCCCC2)cc1 | inactive: 4.77%
